This is an account of results in ChEMBL document CHEMBL1140336, “Synthesis, structure-activity relationships, and biological evaluation of fatty alcohol phosphates as lysophosphatidic acid receptor ligands, activators of PPARgamma, and inhibitors of autotaxin” (J Med Chem, 2005).

Chains of the proteins cited; added tags and fusions are not shown. Lines headed by an entry give the natural chain unless they say otherwise; changes in a name come on top.
UniProt Q92633: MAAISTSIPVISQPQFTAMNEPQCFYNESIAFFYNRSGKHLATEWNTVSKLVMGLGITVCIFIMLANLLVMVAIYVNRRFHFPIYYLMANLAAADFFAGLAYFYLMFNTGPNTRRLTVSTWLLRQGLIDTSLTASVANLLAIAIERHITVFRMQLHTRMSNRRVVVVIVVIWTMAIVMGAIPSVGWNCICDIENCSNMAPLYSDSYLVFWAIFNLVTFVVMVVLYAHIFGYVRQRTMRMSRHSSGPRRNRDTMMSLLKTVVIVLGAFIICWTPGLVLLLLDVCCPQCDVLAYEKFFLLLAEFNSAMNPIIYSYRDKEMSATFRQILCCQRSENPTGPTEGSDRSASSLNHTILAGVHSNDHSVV

In the assay the target is Lysophosphatidic acid receptor 1 (Homo sapiens, UniProt Q92633). The assay is described as follows: Maximal efficacy in induction of [Ca2+] transients in RH7777 rat hepatoma cells expressing LPA1 receptor. It counts as functional, cell-based. A digest of the protocol:
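Agonist mode in RH7777 cells stably expressing the named LPA receptor, serum-starved 6-8 h, Fura-2 AM loaded. Increasing compound concentrations were added alone and the Ca2+ transient was read as the 340/380 ratio peak minus baseline. Emax = compound maximal response as a percentage of the LPA 18:1 maximal response.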

With `CCCCCCCC/C=C/CCCCCCCCOP(O)(O)=S`, the Emax worked out at 80%.
